Target: Hepatocyte growth factor receptor (Homo sapiens, UniProt P08581)
Assay: Inhibition of MET

Chains of the proteins cited; added tags and fusions are not shown. Lines headed by an entry give the natural chain unless they say otherwise; changes in a name come on top.
UniProt P08581: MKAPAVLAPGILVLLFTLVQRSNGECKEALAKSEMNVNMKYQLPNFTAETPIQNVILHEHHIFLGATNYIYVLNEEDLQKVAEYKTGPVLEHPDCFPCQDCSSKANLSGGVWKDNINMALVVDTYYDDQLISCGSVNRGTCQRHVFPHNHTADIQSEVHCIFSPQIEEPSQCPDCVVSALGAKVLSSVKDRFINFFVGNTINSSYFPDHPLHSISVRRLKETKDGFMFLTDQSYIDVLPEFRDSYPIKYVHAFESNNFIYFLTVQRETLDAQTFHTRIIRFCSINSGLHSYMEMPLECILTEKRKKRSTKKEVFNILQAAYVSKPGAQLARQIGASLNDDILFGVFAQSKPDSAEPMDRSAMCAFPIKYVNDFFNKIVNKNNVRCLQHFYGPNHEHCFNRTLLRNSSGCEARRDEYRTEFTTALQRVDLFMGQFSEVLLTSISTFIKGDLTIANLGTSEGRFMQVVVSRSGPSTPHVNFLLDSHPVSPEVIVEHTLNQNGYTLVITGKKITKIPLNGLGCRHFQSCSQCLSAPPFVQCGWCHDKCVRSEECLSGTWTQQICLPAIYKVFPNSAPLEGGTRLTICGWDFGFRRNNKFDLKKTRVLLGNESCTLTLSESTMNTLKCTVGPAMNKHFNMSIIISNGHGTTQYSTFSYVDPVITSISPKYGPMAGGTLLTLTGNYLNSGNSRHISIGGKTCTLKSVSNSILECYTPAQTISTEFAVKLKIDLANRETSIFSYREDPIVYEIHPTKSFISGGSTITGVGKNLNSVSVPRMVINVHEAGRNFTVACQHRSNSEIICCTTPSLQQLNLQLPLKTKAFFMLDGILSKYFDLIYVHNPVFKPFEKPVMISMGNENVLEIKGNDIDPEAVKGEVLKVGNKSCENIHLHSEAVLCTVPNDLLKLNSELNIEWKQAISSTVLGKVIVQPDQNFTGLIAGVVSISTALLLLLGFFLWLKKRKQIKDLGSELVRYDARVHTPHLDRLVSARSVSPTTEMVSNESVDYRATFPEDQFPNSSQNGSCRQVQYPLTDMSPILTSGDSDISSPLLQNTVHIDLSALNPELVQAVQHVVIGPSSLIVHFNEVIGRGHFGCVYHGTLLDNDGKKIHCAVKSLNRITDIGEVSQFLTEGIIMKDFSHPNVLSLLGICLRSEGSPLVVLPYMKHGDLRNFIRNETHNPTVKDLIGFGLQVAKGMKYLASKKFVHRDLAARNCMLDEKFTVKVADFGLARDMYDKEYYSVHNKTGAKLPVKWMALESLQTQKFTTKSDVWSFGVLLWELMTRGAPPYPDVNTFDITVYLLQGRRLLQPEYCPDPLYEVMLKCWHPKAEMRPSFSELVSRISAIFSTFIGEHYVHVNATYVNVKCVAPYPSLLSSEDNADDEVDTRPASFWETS

With `O=C(Nc1ccc(Oc2ccnc3[nH]ccc23)c(F)c1)c1cccn(-c2ccc(F)cc2)c1=O` the IC50 was 1.8 nM.

From ChEMBL document CHEMBL1157356, “Discovery of pyrrolopyridine-pyridone based inhibitors of Met kinase: synthesis, X-ray crystallographic analysis, and biological activities” (J Med Chem, 2008)
